We go through one compound from ChEMBL document CHEMBL3352405, “Design and synthesis of sulfamoyl benzoic acid analogues with subnanomolar agonist activity specific to the LPA2 receptor” (J Med Chem, 2014).

Chains of the proteins cited; added tags and fusions are not shown.
UniProt Q9HBW0, whole entry: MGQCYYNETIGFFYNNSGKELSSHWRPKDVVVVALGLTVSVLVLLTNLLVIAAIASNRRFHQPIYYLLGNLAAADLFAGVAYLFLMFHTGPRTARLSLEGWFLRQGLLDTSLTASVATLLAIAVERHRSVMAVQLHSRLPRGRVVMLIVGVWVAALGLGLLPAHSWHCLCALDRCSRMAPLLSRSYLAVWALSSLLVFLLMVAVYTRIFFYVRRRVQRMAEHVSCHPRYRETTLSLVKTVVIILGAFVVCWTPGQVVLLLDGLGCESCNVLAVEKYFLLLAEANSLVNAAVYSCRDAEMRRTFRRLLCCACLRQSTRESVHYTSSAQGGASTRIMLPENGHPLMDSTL

This experiment deals with Lysophosphatidic acid receptor 2 (Homo sapiens, UniProt Q9HBW0). The experiment in a line: Agonist activity at human LPA2 expressed in LPA1xLPA2 double knockout mouse MEF cells by Fura-2AM dye based Ca2+ mobilization assay relative to LPA 18:1. The format is functional, cell-based. (A change in cytosolic calcium serves as a functional read-out for many receptors and channels.)

A word on the Emax: it is the maximal effect, on the per cent scale that the assay sets. Compound `O=C(O)c1ccccc1S(=O)(=O)NCCCN1C(=O)c2cccc3cccc(c23)C1=O` displayed an Emax of 100%.
